Test results from paper PMC9727182, “Identification of pharmacokinetic markers for safflower injection using a combination of system pharmacology, multicomponent pharmacokinetics, and quantitative proteomics study” (Frontiers in Pharmacology, 2022).

Tests used:
[1] = Multicomponent pharmacokinetics in rat plasma after i.v. safflower injection (SI); details: for AUC0-t / AUC0-∞ / Cl / Cmax / MRT0-t / MRT0-∞ / Vd / t 1/2: rat plasma, i.v. SI
Method: The animal experiments were approved by the Animal Care and Use Committee of the College of Animal Science (College of Bee Science), Fujian Agriculture and Forestry University (Approval Number: PZCASFAFU21012). 250 ± 20 g of male Sprague-Dawley (SD) rats were provided by Lab Animal Center in Fujian Medical University (Fuzhou, China).
Ten rats were divided into three groups (Low dose group, n = 4; medium and high groups, n = 3, respectively). […] For each rat, 2 ml of physiological saline was supplemented after 30 min sampling via intraperitoneal injection. The plasma samples were obtained by centrifugation at 3,000 rpm for 10 min and stored at −20°C until analysis.
Clear supernatant (5 μl) was injected into HPLC-MS for bioanalysis.
The sample was separated on a RD-C18 column (4.6 mm × 50 mm, 3.5 μm, Zhongpu Develop, China). The mobile phase incudes water with 0.1% acetic acid (A) and acetonitrile (B). […] The column temperature, flow rate and injection volume were set at 30°C, 0.5 ml/min and 5 μl, respectively.
Non-compartmental model was used to calculate the PK parameters by DAS 3.0 software (Chinese Pharmacologic Society, Beijing, China). A single-tailed t-test was carried out in the study.

[2] = Stability in diluted SI at room temperature; details: analyzed at 0, 2, 4, 8, 12, 24, and 48 h
[3] = Stability of 6 compounds of SI in rat plasma; details: for 10h in auto-sampler vials RE: extracted rat plasma; for 6h at room temperature RE / Freeze-thaw stability (three cycles) RE / Long-term stability (-80℃,15 days) RE: rat plasma
Excerpt: The LC-MS method was validated by linearity, limits of detection (LOD), limits of quantification (LOQ), precision, accuracy, extraction recovery, matrix effect and stability of the 6 ingredients in rat plasma. Calibration curves were plotted using weighted linear regression of the peak area ratio of analyte to the IS against the corresponding nominal concentration of the analyte. LOD and LOQ were defined as the detectable concentration at which the ratio of signal to noise was more than 3 and 10, respectively. Intra- and inter-day accuracy and precision were assessed by detecting quality control (QC) samples using five replicates of rat samples at three concentration levels on one or three validation days, respectively. Accuracy and precision were expressed by relative error (RE) and relative standard deviation (RSD), respectively. The extraction recovery and matrix effect of the 6 components at above-mentioned three concentration levels were determined. Stability was assessed under the condition of placing un-treated plasma samples at room temperature for 6 h, and extracted plasma samples in auto-sampler for 10 h, as well as placing plasma samples within freeze-thaw three cycles and at −80 °C for 15 days.

[4] = High dose (4 ml/kg), n = 3, Mean ± SD
[5] = Low dose (1 ml/kg), n = 4, Mean ± SD
[6] = Medium dose (2 ml/kg), n = 3, Mean ± SD

Q: With hydroxysafflor yellow A [HSYA] as the substance, how does the “detection in rat plasma” value ([1]; 1 h after administration (2 ml/kg of SI), preliminary test) read?
A: Its value is “can be detected”.

Q: What about the AUC0-t [1, 4] of the same substance?
A: Its AUC0-t is 11,015.37 ± 1,025.71 h·ng/ml.

Q: What about the “AUC0-∞” value [1, 4] of the same substance?
A: Its value is 11,453.34 ± 668.38 h·ng/ml.

Q: What about the Cl [1, 4] of the same substance?
A: Its Cl is 1.5 ± 0.17 mL/min/kg.

Q: And the Cmax [1, 4]?
A: Its Cmax is 14,077.33 ± 17.21 ng/ml.

Q: And the MRT0-t [1, 4]?
A: Its MRT0-t is 42 ± 5.4 min.

Q: What about the “MRT0-∞” value [1, 4] of the same substance?
A: The value was 46.8 ± 6.6 min.

Q: And the Vd [1, 4]?
A: Its Vd is 0.06 ± 0.02 L/kg.

Q: And the “t 1/2” value [1, 4]?
A: The value was 27.6 ± 7.2 min.

Q: What about the AUC0-t [1, 5] of the same substance?
A: The AUC0-t was 2,479.11 ± 1,312.76 h·ng/ml.

Q: What about the “AUC0-∞” value [1, 5] of the same substance?
A: The value was 2,490.30 ± 1,317.76 h·ng/ml.

Q: And the Cl [1, 5]?
A: The Cl was 2.17 ± 1.2 mL/min/kg.

Q: And the Cmax [1, 5]?
A: Its Cmax is 2,624.50 ± 660.17 ng/ml.

Q: And the MRT0-t [1, 5]?
A: Its MRT0-t is 45.6 ± 11.4 min.

Q: What about the “MRT0-∞” value [1, 5] of the same substance?
A: The value was 46.8 ± 11.4 min.

Q: What about the Vd [1, 5] of the same substance?
A: The Vd was 0.09 ± 0.04 L/kg.

Q: And the “t 1/2” value [1, 5]?
A: Its value is 28.2 ± 4.2 min.

Q: And the AUC0-t [1, 6]?
A: The AUC0-t was 5,074.18 ± 328.93 h·ng/ml.

Q: And the “AUC0-∞” value [1, 6]?
A: The value was 5,461.77 ± 202.42 h·ng/ml.

Q: What about the Cl [1, 6] of the same substance?
A: Its Cl is 1.67 ± 0 mL/min/kg.

Q: What about the Cmax [1, 6] of the same substance?
A: The Cmax was 5,628.33 ± 405.14 ng/ml.

Q: What about the MRT0-t [1, 6] of the same substance?
A: Its MRT0-t is 47.4 ± 8.4 min.

Q: And the “MRT0-∞” value [1, 6]?
A: Its value is 58.2 ± 3.6 min.

Q: What about the Vd [1, 6] of the same substance?
A: The Vd was 0.09 ± 0.01 L/kg.

Q: And the “t 1/2” value [1, 6]?
A: Its value is 38.4 ± 4.8 min.

Q: And the “detected mean maximum plasma concentration” value ([1]; rats, after administration of 4 ml/kg of SI)?
A: The value was 14.07 μg/mL and 23 μM.

Q: And the “Stability RSD” value [2]?
A: Its value is 2.56%.

Q: And the “10h in auto-sampler vials RE” value ([3]; spiked 40 ng/mL)?
A: The value was -13.75%.

Q: What about the “10h in auto-sampler vials RE” value ([3]; spiked 400 ng/mL) of the same substance?
A: Its value is 1.00%.

Q: What about the “10h in auto-sampler vials RE” value ([3]; spiked 10000 ng/mL) of the same substance?
A: The value was 0.06%.

Q: What about the “6h at room temperature RE” value ([3]; spiked 40 ng/mL) of the same substance?
A: The value was -10.50%.

Q: What about the “Freeze-thaw stability (three cycles) RE” value ([3]; spiked 40 ng/mL) of the same substance?
A: Its value is 2.50%.

Q: What about the “Long-term stability (-80℃,15 days) RE” value ([3]; spiked 40 ng/mL) of the same substance?
A: The value was 3.00%.

Q: What about the “6h at room temperature RE” value ([3]; spiked 400 ng/mL) of the same substance?
A: The value was 4.80%.

Q: What about the “Freeze-thaw stability (three cycles) RE” value ([3]; spiked 400 ng/mL) of the same substance?
A: The value was 3.30%.

Q: And the “Long-term stability (-80℃,15 days) RE” value ([3]; spiked 400 ng/mL)?
A: The value was 0.80%.

Q: And the “6h at room temperature RE” value ([3]; spiked 10000 ng/mL)?
A: The value was -4.43%.

Q: What about the “Freeze-thaw stability (three cycles) RE” value ([3]; spiked 10000 ng/mL) of the same substance?
A: Its value is 4.92%.

Q: And the “Long-term stability (-80℃,15 days) RE” value ([3]; spiked 10000 ng/mL)?
A: Its value is -3.85%.

Several values for one entry are separate records, joined by “and”; a condition that tells them apart may be missing. Equal entries are not always repeated.
